From patent US7968561B2, “Steroidal compounds as steroid sulphatase inhibitors” (Sterix Limited, priority 2006, dated 2011) come the findings set out here.

For the assay, the system named is MCF-7STS cells (MCF-7 cells over expressing STS). Briefly: Growth of E2S-stimulated MCF-7STS xenograft tumours in nude mice. The format is in vivo.

Turning to `C[C@]12CCC3c4ccc(OS(N)(=O)=O)cc4CCC3C1CC(=O)N(CCC(F)(F)F)C2=O` (some centres unmarked) [STX1938, 3-Sulfomoyloxy-N-(3,3,3-trifluoropropyl)-16,17-seco-Estra-1,3,5(10)-triene-16,17-imide], the “growth of E2S stimulated tumours” value (Study 1: 1 mg/kg and 10 mg/kg p.o., 5/7 days per week, nude mice) is reported as “significantly reduced”. In addition, under “Study 2: 1 mg/kg p.o. once per week for 7 weeks”, the tumour growth entry is given as “significantly reduced”.
